ALR inh = inhibitors of human ALR sulfhydryl oxidase, primary screen, biochemical, H2O2 detection, HRP-luminol luminescence, single point. inhibition, % (concentration not given with the values). 290,000 compounds, 3.8% hits. purified ALR, DTT oxidation. AID 485317, 2010;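 active means mean and each replicate at 75% or more; inconclusive means only one of the two met; inactive means neither met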;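 further: stock transfer was 7.5 nL into about 7.5 µL; 0% = neutral wells and 100% = wells with inactivated enzyme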
Yeast UUG start = modulators of start codon recognition fidelity in yeast; S. cerevisiae UUG-firefly luciferase reporter, luminescence/redox ratio; AID 602363; 350,000 tested, 0.13% active; activity score, % at 18.7 µM;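 active = replicate mean at a twofold rise or more, about +100% in these data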;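 also: firefly luciferase made from a UUG start codon reports start codon fidelity; reporter light over untreated wells divided by growth signal over untreated wells; some hits fall short of that in this replicate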
MC4R antagonist = blocks human MC4R cAMP signaling; 0.48% of 360,000 active; inhibition, % at 6.5 µM; MC4R-expressing cells, MTII-stimulated cAMP, LANCE TR-FRET; P32245;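 active = inhibition above its plate's cutoff, the mean of tested wells on that plate plus 3 SD, cut at about 29% in these data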;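 also: 0% = Melanotan II alone and 100% = Melanotan II plus saturating MCL0020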
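Assay system: human MC4R-expressing U2OS cells; reagent: Melanotan II stimulation of cells; dosing: 6.5 µM single dose; timing: compound 30 min, challenge 1 h, detection 1 h; signal: TR-FRET cAMP assay; replicates: one well per compound, no replicates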
NALP1 yeast inh = blocks the NALP1 inflammasome reconstituted in yeast; S. cerevisiae NALP1/ASC/caspase-1 growth, X-gal OD620, 72 h; inhibition, % at 10 µM; 0.61% of 280,000 active; in the data active = inhibition mostly above about 24%, no sharp cut-off; inactive = mostly below about 32%
HDAC3 inhib = human HDAC3 inhibition. 0.15% of 320,000 active. recombinant HDAC3, fluorogenic peptide/trypsin coupled, fluorescence. O15379. AID 2718. inhibition, % at 8.3 µM; in the data active = inhibition above about 26%, passing the limit was not always enough; inconclusive = no clear call, values can overlap the other calls
MC4R ag barr = activates human MC4R beta-arrestin recruitment; U2OS MC4R beta-arrestin complementation, luminescence; percent of melanotan II response, DMSO zero; 0.98% of 360,000 active; activation, % at 8.9 µM; AID 540308;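 active = activation above a per-plate cutoff, the mean activation of sample wells on that plate plus 3 SD, cut at about 8% in these data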
MC4R barr conf = human MC4R beta-arrestin agonism confirmation. shares compounds with MC4R ag barr. U2OS MC4R beta-arrestin recruitment, luminescence; scaled DMSO 0%, Melanotan II 100%. activation, % at 8.9 µM. 31% of 2,400 active. AID 602192;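 active = mean activation across replicates above the hit cutoff set in the earlier primary screen, cut at about 8% in these data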
MOR-DOR barr ag = activates mu-delta opioid heterodimer, MC4R agonist counter-screen | activation, % at 9.2 µM | U2OS PathHunter beta-arrestin, beta-gal luminescence; percent of deltorphin B response, DMSO zero | AID 602194 | 5.8% of 2,400 active | shares compounds with MC4R ag barr;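 active = mean activation across replicates exceeds the hit threshold derived in the earlier primary screen, cut at about 18% in these data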;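 also: 100% = deltorphin B at 0.9 µM final and 0% = DMSO alone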
* = called active by the depositor; ? = inconclusive; / = not tested or not shown; ! = not confirmed by another sample. Compounds with a hit are over-represented: about 4.2% of the library has one in this group of screens.

SMILES	ALR inh	Yeast UUG start	MC4R antagonist	NALP1 yeast inh	HDAC3 inhib	MC4R ag barr	MC4R barr conf	MOR-DOR barr ag
CCOC(=O)c1sc2nc(CSc3ccccc3Cl)[nH]c(=O)c2c1C	-0.7	/	-6.2	16.6	3.0	10.2*	3.2	2.3
Cc1ccc(CCc2nnc(SCC(=O)Nc3cccc(Cl)c3)n2-c2ccccc2)o1	-9.0	/	-1.2	30.8	-0.8	27.1*	3.0	7.6
CN1[C@@H]2c3ccc(-c4ccccc4)c(=O)n3C[C@H]1[C@H](CO)[C@H]2C(=O)N1CCC(Cc2ccccc2)CC1	/	16.4	/	/	/	/	/	/
CC(=O)Nc1ccc2c(c1)C(=O)N(C)[C@@H]1CC[C@@H](CC(=O)NCc3ccc(Cl)cc3)O[C@@H]1CO2	/	30.6	/	/	/	/	/	/
CC(C)(C)C(=O)NC(=S)Nc1sc2c(c1C#N)CCCCC2	13.1	/	-5.0	15.0	-11.1	16.9*	-2.8	2.1
COc1ccc(S(=O)(=O)Nc2ccc3c(c2)C(=O)N([C@@H](C)CO)C[C@H](C)[C@H](CN(C)Cc2ccc(C(=O)O)cc2)OCCCC[C@H](C)O3)cc1	/	3.0	/	/	/	/	/	/
O=c1[nH]c(-c2ccc(-c3cccc(Cl)c3)o2)nc2ccccc12	-1.9	-20.6	-3.0	/	-2.4	12.6*	-1.6	2.4
O=c1[nH]c(SCc2cccc(Cl)c2)nc2ccccc12	-2.4	/	5.0	-14.1	3.2	2.7	/	/
C=CCNC(=O)NC(=O)CSc1nc2cc([N+](=O)[O-])ccc2n1-c1cccc(C(F)(F)F)c1	-1.0	56.5	6.6	18.1	6.4	10.5*	3.2	5.6
O=C(CSc1nc2cc([N+](=O)[O-])ccc2n1-c1ccccc1)NCc1ccc2c(c1)OCO2	?	/	6.8	20.3	3.6	2.3	/	/
Cc1cc(-n2c(C)cc(C(=O)CSc3nnnn3-c3ccc(Cl)cc3)c2C)no1	/	/	7.0	-8.4	/	19.9*	1.6	3.5
CCN1[C@@H]2c3ccc(-c4cccc(F)c4)c(=O)n3C[C@H]1[C@H](CO)[C@H]2C(=O)NCC1CC1	/	0.2	/	/	/	/	/	/
COc1c(C(=O)Nc2ccc3[nH]c(=O)[nH]c3c2)cc2ccccc2c1Br	-2.7	/	6.8	8.3	-10.1	12.2*	5.1	16.7
COC(=O)c1ccccc1NC(=O)C1CC(c2ccccc2O)=NO1 (stereo not drawn)	0.6	-1.6	6.2	13.5	0.3	13.8*	-1.7	3.7
CC(C)=CCC/C(C)=C/C=N/NC(=O)c1cccc([N+](=O)[O-])c1	-1.8	/	6.5	1.1	4.2	-0.3	/	/
CC(C)=CCC/C(C)=C/C=N/NC(=O)c1ccc([N+](=O)[O-])cc1	-5.7	-18.0	-2.4	19.5	1.7	14.7*	-1.8	8.0
Cc1ccc(NC(=O)c2ccc(N/N=C/c3cccc(O)c3)c([N+](=O)[O-])c2)cc1	-24.4	-16.4	-7.6	8.1	-9.5	9.9*	4.5	15.2
Cc1ccccc1NC(=O)c1ccc(N/N=C/c2ccccc2O)c([N+](=O)[O-])c1	-1.4	/	1.3	11.5	-8.9	-1.4	/	/
CC(C)COc1ccc(C(=O)Nc2ccc(NC(=O)c3ccco3)c(Cl)c2)cc1	18.2	-14.7	3.4	10.8	-12.5	40.4*	23.6*	28.0*
CCCN1C(=O)/C(=C/c2c(NCCCOCC)nc3c(C)cccn3c2=O)SC1=S	/	-10.4	5.3	10.9	/	-0.9	/	/
O=C1/C(=C\c2c(NCCOCCO)nc3ccccn3c2=O)SC(=S)N1Cc1ccco1	10.7	-0.4	-2.2	24.2	-0.4	10.3*	5.0	7.7
Cc1noc(C)c1S(=O)(=O)N(C)C[C@H]1OCCCC[C@H](C)Oc2ccc(NC(=O)Cc3ccccc3)cc2C(=O)N([C@H](C)CO)C[C@@H]1C	/	-10.4	/	/	/	/	/	/
O=C(NCC(c1ccco1)N1CCc2ccccc21)C(=O)Nc1ccccc1 (stereo not drawn)	20.1	-15.4	6.0	/	-15.7	11.1*	1.1	3.6
O=C(NCC(c1ccco1)N1CCc2ccccc21)C(=O)Nc1ccccc1F (stereo not drawn)	6.7	-2.3	1.5	/	11.8	-2.0	/	/
Cc1nn(Cc2ccccc2Cl)c(C)c1C(=O)NCCN1C(=O)S/C(=C\c2ccccc2)C1=O	9.1	/	-16.3	29.9	0.8	20.5*	11.7*	4.6
OC(CNCCc1ccc(C(F)(F)F)cc1)COc1cccc2ccccc12 (stereo not drawn)	-7.8	/	11.8	102.8*	6.9	14.7*	20.4*	10.2
OC(CNCCc1ccc(Cl)cc1)COCc1ccco1 (stereo not drawn)	-8.0	-8.6	17.5	-6.2	-5.7	1.8	/	/
OC(CNCCc1ccc(C(F)(F)F)cc1)COc1ccc2ccccc2c1 (stereo not drawn)	-158.1	/	6.5	96.0*	?	11.8*	9.4*	7.2
COc1ccccc1COCC(O)CNCCc1ccc(C(F)(F)F)cc1 (stereo not drawn)	/	-8.2	15.8	24.5	2.1	10.8*	7.9	8.8
O=C(C[C@@H]1C[C@H]2c3cc(NC(=O)C4CCC4)ccc3O[C@H]2[C@@H](CO)O1)NCc1cc(F)ccc1F	/	-6.2	/	/	/	/	/	/
O=C(NC(=S)NCc1ccc(-c2nc3ccccc3s2)cc1)c1ccco1	-6.7	/	-2.2	26.7	11.0	28.1*	5.9	2.1
CCN1CCN(Cc2ccc(NC(=O)c3cc(NC(=O)c4ccno4)cc(OC)c3)cc2C(F)(F)F)CC1	-8.9	-3.6	-10.6	/	-1.6	0.5	/	/
CCN1CCN(Cc2ccc(NC(=O)c3cc(NC(=O)c4cc5cccc(OC)c5o4)cc(OC)c3)cc2C(F)(F)F)CC1	-9.2	-7.9	-0.3	/	4.4	28.6*!	37.0*	7.3
COc1ccc(CN(C)CC(=O)Nc2ccccc2C(F)(F)F)cc1	0.7	/	15.8	-9.9	4.8	1.0	/	/
COc1ccc2ccc(O)c(CN(C)CC(=O)Nc3ccccc3C(F)(F)F)c2c1	-47.0	-20.5	14.0	0.9	12.8	12.8*	7.0	9.8
COCC(=O)Nc1ccc2c(c1)C(=O)N(C)[C@@H]1CC[C@H](CC(=O)NCCc3ccccc3)O[C@H]1CO2	/	-16.3	/	/	/	/	/	/
Cc1ccc(S(=O)(=O)Nc2ccc3c(c2)C(=O)N([C@@H](C)CO)C[C@@H](C)[C@H](CN(C)Cc2ccncc2)OCCCC[C@H](C)O3)cc1	/	7.0	/	/	/	/	/	/
C=CCNc1nc(C(F)(F)F)nc2c1nnn2Cc1ccccc1Cl	-0.9	4.5	-7.8	5.9	-1.6	11.7*	2.6	5.7

An excerpt from above in order of heavy-atom count, low to high.
SMILES	ALR inh	Yeast UUG start	MC4R antagonist	NALP1 yeast inh	HDAC3 inhib	MC4R ag barr	MC4R barr conf	MOR-DOR barr ag
OC(CNCCc1ccc(Cl)cc1)COCc1ccco1 (stereo not drawn)	-8.0	-8.6	17.5	-6.2	-5.7	1.8	/	/
OC(CNCCc1ccc(C(F)(F)F)cc1)COc1cccc2ccccc12 (stereo not drawn)	-7.8	/	11.8	102.8*	6.9	14.7*	20.4*	10.2
O=C(NCC(c1ccco1)N1CCc2ccccc21)C(=O)Nc1ccccc1F (stereo not drawn)	6.7	-2.3	1.5	/	11.8	-2.0	/	/
Cc1nn(Cc2ccccc2Cl)c(C)c1C(=O)NCCN1C(=O)S/C(=C\c2ccccc2)C1=O	9.1	/	-16.3	29.9	0.8	20.5*	11.7*	4.6
CCN1CCN(Cc2ccc(NC(=O)c3cc(NC(=O)c4ccno4)cc(OC)c3)cc2C(F)(F)F)CC1	-8.9	-3.6	-10.6	/	-1.6	0.5	/	/

Screens as filed in PubChem.
